From patent publication US20240018161A1, “MODULATORS OF CYSTIC FIBROSIS TRANSMEMBRANE CONDUCTANCE REGULATOR” (VERTEX PHARMACEUTICALS INCORPORATED, priority 2020, published 2024)

Protein sequences, listed by entry. Tags and fused reporters are not part of them. Chains listed by the source or under a name are the forms on record and can include a tag or linker.
UniProt P13569, with tags, fused parts or gaps DEL508-508: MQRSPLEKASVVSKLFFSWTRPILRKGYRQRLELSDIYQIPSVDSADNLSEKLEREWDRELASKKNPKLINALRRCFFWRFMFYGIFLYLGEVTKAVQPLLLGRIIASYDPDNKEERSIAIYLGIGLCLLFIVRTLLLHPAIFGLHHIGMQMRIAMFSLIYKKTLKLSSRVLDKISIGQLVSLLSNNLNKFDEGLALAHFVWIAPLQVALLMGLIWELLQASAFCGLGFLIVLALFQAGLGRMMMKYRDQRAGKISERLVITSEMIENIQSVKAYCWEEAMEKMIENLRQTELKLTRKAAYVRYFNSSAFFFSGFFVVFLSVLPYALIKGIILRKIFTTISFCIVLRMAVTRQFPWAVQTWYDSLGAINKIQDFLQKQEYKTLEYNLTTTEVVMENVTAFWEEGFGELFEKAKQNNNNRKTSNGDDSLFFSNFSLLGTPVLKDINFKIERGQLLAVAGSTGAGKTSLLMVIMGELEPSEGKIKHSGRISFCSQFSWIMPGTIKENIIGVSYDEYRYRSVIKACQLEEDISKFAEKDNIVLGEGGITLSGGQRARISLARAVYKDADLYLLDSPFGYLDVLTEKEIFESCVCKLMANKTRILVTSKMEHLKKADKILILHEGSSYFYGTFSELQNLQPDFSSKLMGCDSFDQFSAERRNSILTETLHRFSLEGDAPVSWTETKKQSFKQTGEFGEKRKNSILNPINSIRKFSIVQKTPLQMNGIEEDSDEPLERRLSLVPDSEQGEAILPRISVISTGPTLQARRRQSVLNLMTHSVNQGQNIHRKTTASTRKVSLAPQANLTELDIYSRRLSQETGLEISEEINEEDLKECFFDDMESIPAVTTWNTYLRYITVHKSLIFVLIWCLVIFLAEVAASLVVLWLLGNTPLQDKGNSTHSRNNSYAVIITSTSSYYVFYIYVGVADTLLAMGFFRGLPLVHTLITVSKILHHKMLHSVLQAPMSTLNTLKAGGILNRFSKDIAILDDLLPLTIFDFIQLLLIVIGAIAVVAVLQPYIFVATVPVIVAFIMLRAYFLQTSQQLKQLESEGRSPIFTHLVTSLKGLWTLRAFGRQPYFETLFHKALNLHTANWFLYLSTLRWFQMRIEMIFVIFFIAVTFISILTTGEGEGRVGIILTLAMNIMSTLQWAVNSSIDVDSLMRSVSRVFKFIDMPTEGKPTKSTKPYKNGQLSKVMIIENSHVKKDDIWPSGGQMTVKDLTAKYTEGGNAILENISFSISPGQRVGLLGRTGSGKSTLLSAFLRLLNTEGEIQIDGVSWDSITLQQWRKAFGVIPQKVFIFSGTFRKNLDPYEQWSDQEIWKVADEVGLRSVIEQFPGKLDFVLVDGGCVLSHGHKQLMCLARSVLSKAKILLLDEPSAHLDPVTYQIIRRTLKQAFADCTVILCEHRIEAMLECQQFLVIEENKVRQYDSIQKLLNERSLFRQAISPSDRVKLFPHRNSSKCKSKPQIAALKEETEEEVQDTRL

Molecular target: CFTR-mediated chloride transport in human intestinal epithelial enteroid cells (Homo sapiens, UniProt P13569)
Experiment: Membrane potential dye, Enteroid Assay A
Settings: for EC50: read-out: Ent. A EC50

**Q.** What does the source list for `Cc1ccccc1-c1cc2nc(n1)NS(=O)(=O)c1cccc(c1)C(=O)N1Cc3ccccc3[C@H](O2)[C@H]1CC(C)C`?
**A.** Ent. A Max Activity (%) (Enteroid Assay A): +++ (+++ is >600%); EC50 (Enteroid Assay A): < 1000 nM

**Q.** Which “Ent. A Max Activity (%)” value (percentage of chloride transport of triple combination control (3 μM N-[(6-amino-2-pyridyl)sulfonyl]-6-(3-fluoro-5-isobutoxy-phenyl)-2-[(4S)-2,2,4-trimethylpyrrolidin-1-yl]pyridine-3-carboxamide based)) does the source give for `Cc1cccc(C)c1-c1cc2nc(n1)NS(=O)(=O)c1cccc(c1)C(=O)N1Cc3ccccc3CC(C1)O2` (single isomer, unassigned) [Compound 217, 12-(2,6-dimethylphenyl)-15-oxa-8λ^6-thia-1,9,11,26-tetraazapentacyclo[14.8.1.13,7.110,14.018,23]heptacosa-3(27),4,6,10,12,14(26),18,20,22-nonaene-2,8,8-trione] here?
**A.** The value was “++ (++ is 30-60%)”.

**Q.** What about the EC50 (enteroid cells incubated with test compound 18-24 hours, acute 10 μM forskolin and 300 nM N-[2,4-bis(1,1-dimethylethyl)-5-hydroxyphenyl]-1,4-dihydro-4-oxoquinoline-3-carboxamide) of the same molecule?
**A.** The EC50 was < 1000 nM.

Like-named read-outs stand apart in the source and are kept apart here.
